This is a selection; strong and weak results do not stand in their true shares. The source made the active and inactive calls. Cut-off read from the data, not from the text of the source: active = z-score below about -2 (passing the limit was not always enough); inactive = the rest.
Assay: PubChem AID 504770
Details: E. coli YBA685 rctB-dependent plasmid, OD600 growth, 3 h; stronger effect = lower value

SMILES	z-score
CN(CCCl)CCCl	inactive: -0.55

Source: PubChem BioAssay AID504770 (ICCB-Longwood Screening Facility, Harvard Medical School, 2011)
